The data set has as its system Caco-2 cells. The class given is in vitro ADME, human.
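Further: Caco-2 monolayers used 21 days after seeding in HBSS-HEPES buffer with 1% DMSO, donor and acceptor levels quantified by LC-MS/MS, TEER checked before and after.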

As to `CC(C)C[C@@H]1NC(=O)[C@H](Cc2ccc(O)cc2)NC(=O)[C@H]2CCCN2C(=O)[C@H](CC(C)C)NC(=O)[C@H](CC(C)C)NC(=O)[C@@H](CC(C)C)NC1=O` [compound 10, cyclo(-D-Leu^1-Leu-Leu-D-Pro-Tyr-Leu^6-)], the “Caco-2 permeability apical to basolateral (A-B)” value was found to be 0.76 ×10⁻⁶ cm/s and the “Caco-2 permeability basolateral to apical (B-A)” value worked out at 12.4 ×10⁻⁶ cm/s.
